From ChEMBL document CHEMBL3259819, “Antimicrobial peptides from skin secretions of Hypsiboas pulchellus (Anura: Hylidae)” (J Nat Prod, 2014) come the findings set out here.

The data set can be described thus: Toxicity in erythrocytes (unknown origin) assessed as hemolytic activity. Type of data set: cell-based, Erythrocyte. Particulars: read-out: HD50 (the source's name). The essentials: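 Human erythrocytes from heparinised blood, spun 3000 rpm for 10 min after three saline washes, used at 0.4% (v/v) in isotonic saline. Equal volumes incubated with increasing concentrations (0.4 to 4.4 mg/mL for extracts) for 60 min at 37 °C. Cells spun at 3000 rpm for 5 min and supernatant A405 read. Lysis by 1% Triton X-100 served as 100%.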

Regarding `CC[C@H](C)[C@H](NC(=O)CN)C(=O)NCC(=O)N[C@@H](C)C(=O)N[C@H](C(=O)N[C@@H](CC(C)C)C(=O)N[C@@H](CCCCN)C(=O)N[C@H](C(=O)N[C@@H](CC(C)C)C(=O)N[C@H](C(=O)N[C@H](C(=O)NCC(=O)N[C@@H](CC(C)C)C(=O)N1CCC[C@H]1C(=O)N[C@@H](C)C(=O)N[C@@H](CC(C)C)C(=O)N[C@H](C(=O)N[C@@H](CO)C(=O)N[C@@H](Cc1c[nH]c2ccccc12)C(=O)N[C@H](C(=O)N[C@@H](CCCCN)C(=O)N[C@@H](CCCNC(=N)N)C(=O)N[C@@H](CCCCN)C(=O)N[C@@H](CCCNC(=N)N)C(=O)N[C@@H](CCC(N)=O)C(=O)N[C@@H](CCC(N)=O)C(N)=O)[C@@H](C)CC)[C@@H](C)CC)[C@@H](C)O)[C@@H](C)O)C(C)C)C(C)C` [MELITTIN], the HC50 is 600 nM.
